Earlier results in paper PMC4330465 (Journal of Computer-Aided Molecular Design, 2014).

Sequences of proteins named here, by UniProt entry; tags and fusion partners are left off. Residues count along the entry.
UniProt P22303, 32-614 limits assumed: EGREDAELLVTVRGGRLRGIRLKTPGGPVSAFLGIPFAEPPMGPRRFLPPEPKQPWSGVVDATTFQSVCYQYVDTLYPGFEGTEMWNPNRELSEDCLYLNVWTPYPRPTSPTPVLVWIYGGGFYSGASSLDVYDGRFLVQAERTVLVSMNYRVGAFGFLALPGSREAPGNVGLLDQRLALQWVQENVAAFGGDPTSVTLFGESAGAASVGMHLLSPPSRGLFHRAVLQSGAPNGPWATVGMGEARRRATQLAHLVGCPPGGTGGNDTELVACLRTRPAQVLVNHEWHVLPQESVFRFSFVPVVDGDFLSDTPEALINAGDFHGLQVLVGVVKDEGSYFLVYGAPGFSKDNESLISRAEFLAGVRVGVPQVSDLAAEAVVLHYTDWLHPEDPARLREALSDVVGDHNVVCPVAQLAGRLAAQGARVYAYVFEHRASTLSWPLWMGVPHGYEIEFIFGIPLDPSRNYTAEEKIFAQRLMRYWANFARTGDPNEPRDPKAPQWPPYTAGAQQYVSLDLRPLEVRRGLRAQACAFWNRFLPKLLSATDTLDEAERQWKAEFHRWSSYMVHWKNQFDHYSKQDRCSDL

Biological target: Recombinant Homo sapiens AChE (Homo sapiens, UniProt P22303)
Conditions: test set Set3 (Table S15); cited from earlier work

Compound	IC50 [µM]
CCN(CC)CCNS(=O)(=O)Cc1ccc(C(F)(F)F)cc1	17
CCN(CC)CCNS(=O)(=O)c1ccc(OC)cc1	118
CCN(CC)CCNS(=O)(=O)Cc1ccc(F)cc1	42
CCN(CC)CCNS(=O)(=O)c1ccccc1	33
CCN(CC)CCNS(=O)(=O)c1ccc(F)c(F)c1	51
CCN(CC)CCNS(=O)(=O)c1cccc2ccccc12	38
CCN(CC)CCNS(=O)(=O)c1ccccc1F	42
CCN(CC)CCNS(=O)(=O)Cc1ccc(Cl)c(Cl)c1	6.8
CCN(CC)CCNS(=O)(=O)c1ccc(Cl)cc1F	94
CCN(CC)CCNS(=O)(=O)c1cccc(C(F)(F)F)c1	24
CCN(CC)CCNS(=O)(=O)Cc1ccc(C)cc1	51
CCN(CC)CCNS(=O)(=O)c1cccc(Cl)c1	19
CCN(CC)CCNS(=O)(=O)c1ccc(Cl)cc1	91
CCN(CC)CCNS(=O)(=O)c1ccc([N+](=O)[O-])cc1	162
CCN(CC)CCNS(=O)(=O)c1ccc(Oc2c(Cl)cccc2[N+](=O)[O-])cc1	0.7
CCN(CC)CCNS(=O)(=O)c1ccc(F)cc1	65
CCN(CC)CCNS(=O)(=O)Cc1ccc(Br)cc1	11
CCN(CC)CCNS(=O)(=O)Cc1ccccc1	134
